From patent US12403412B2, “Metal-organic frameworks for the removal of uremic toxins” (Northwestern University, priority 2018, dated 2025)

Tests used:
Type in all cases: binding
[1] = Isothermal titration calorimetry (ITC): IS adsorption; settings: Tris-HCl buffer pH 7.4
Description: (§1) Preliminary ITC experiments investigated the energetics of p-CS and IS adsorbing onto NU-1000 in Tris-HCl buffer at pH 7.4 (FIG. 16 panels (a)-(d), Table 5, and Table 6). […] Fitting the ITC thermograms using a single site adsorption model yielded the lowest errors (<10%) in all experiments.
(§2) ITC experiments were performed using a VP-ITC titration microcalorimeter (MicroCal Inc.). […] Solutions of p-CS and IS were filtrated off through a syringe filter (PVDF membrane, 0.45 μm, Satorious Minisart Syringe Filter). All samples were degassed properly on a vacuum pump for 20 mins. […] All titrations were carried out at pH 7.4±0.1 in aqueous buffer solutions under the following measurement conditions: reference power (10 μcal s^−1), initial injection delay (600 s), stirring speed (307 rpm), feedback mode gain (high feedback), spacing between injections (500 s), and filter period (10 s). All other conditions are described in Table 6. All titration experiments were performed in triplicate. A thermodynamic profile of each binding interaction was determined by fitting the data with a single-site interaction model. Heats of dilution for uremic toxins were determined in control experiments, and these were subtracted from the integrated data before curve fitting.
(§3) ITC has been widely used for studying enzymatic systems but it should also be applicable to MOF systems. In this section, the theory of ITC and the mathematical formulation behind it is briefly explained. Following the framework described in Lawrence Indyk et al., the binding of a single ligand, L (sulfate anion in this study), with a MOF receptor, M (MOF crystals in this study), can be considered (Indyk, L. et al., Methods Enzymol. 1998, 295, 350-364.): [M]+n[L] ? n[ML] (Eq. 9) [M]+[L] ? [ML] (Eq. 10) where ML is the ligand-bound MOF complex. The binding stoichiometry is given by n. Only single-site independent binding and one-to-one binding were considered in this case (n=1, Eq. 10). MOF crystals, especially NU-1000, should have several binding sites, but each site is thermodynamically identical and has similar affinity for sulfate ions. The equilibrium association constant, Ka, is defined as
(§4) [formula] where V is the volume of the calorimetric cell, ΔH is the enthalpy of binding for formation of [ML]. Substituting Eqs. 11-13 into Eq. 14 allows ΔQ to be written explicitly in terms of Ka, ΔH, [MT], and [LT]. The integrated heats from each injection can be fit to a model as a function of molar ratio to determine heat from the standard parameters (Ka, ΔH, and n) in a single experiment. The value of ΔG is determined from the standard thermodynamic definition, ΔG=−RT ln(Ka), and the entropy of adsorption, ΔS, is calculated from ΔG=ΔH−TΔS.

[2] = Adsorption isotherm of p-cresyl sulfate on NU-1000 and HSA at 310 K (Freundlich)
[3] = Isothermal titration calorimetry (ITC): p-CS adsorption; settings: Tris-HCl buffer pH 7.4
Description: as §1, §2, §3, §4

Substance: HSA: transport human serum albumin (HSA) in human blood, binds protein-bound uremic toxins
- Ka ([1]; 25 °C): 6.16 ± 0.01 10^4, M^−1
- TΔS ([1]; 25 °C): -2.42 ± 0.05 kcal/mol
- ΔG ([1]; 25 °C): -6.54 ± 0.01 kcal/mol
- ΔH ([1]; 25 °C): -8.96 ± 0.05 kcal/mol
- Ka ([1]; 30 °C): 5.53 ± 0.17 10^4, M^−1
- TΔS ([1]; 30 °C): -2.30 ± 0.40 kcal/mol
- ΔG ([1]; 30 °C): -6.58 ± 0.02 kcal/mol
- ΔH ([1]; 30 °C): -8.88 ± 0.42 kcal/mol
- Ka ([1]; 37 °C): 3.91 ± 0.05 10^4, M^−1
- TΔS ([1]; 37 °C): -2.70 ± 0.06 kcal/mol
- ΔG ([1]; 37 °C): -6.52 ± 0.01 kcal/mol
- ΔH ([1]; 37 °C): -9.22 ± 0.06 kcal/mol
- Percentage of adsorbed p-cresyl sulfate on HSA (average) ([2]; initial concentration (Ci) 0.01 to 0.1 mM, 50 mg HSA in 1.0 mL 0.9% NaCl): 82±5%
- KF (Freundlich adsorption constant) ([2]; p-cresyl sulfate): 2.87 (mg g^−1)(L mg^−1)l/n
- l/n (degree of nonlinearity and adsorption intensity) ([2]; p-cresyl sulfate): 0.97
- Ka ([3]; 25 °C): 0.69±0.07 10^4, M^−1
- TΔS ([3]; 25 °C): -0.84 ± 0.21 kcal/mol
- ΔG ([3]; 25 °C): -5.23 ± 0.06 kcal/mol
- ΔH ([3]; 25 °C): -6.08 ± 0.15 kcal/mol
- Ka ([3]; 30 °C): 0.52 ± 0.01 10^4, M^−1
- TΔS ([3]; 30 °C): -0.61 ± 0.35 kcal/mol
- ΔG ([3]; 30 °C): -5.16 ± 0.01 kcal/mol
- ΔH ([3]; 30 °C): -5.77 ± 0.34 kcal/mol
- Ka ([3]; 37 °C): 0.40 ± 0.01 10^4, M^−1
- TΔS ([3]; 37 °C): -0.30 ± 0.39 kcal/mol
- ΔG ([3]; 37 °C): -5.07 ± 0.05 kcal/mol
- ΔH ([3]; 37 °C): -5.37 ± 0.34 kcal/mol
